This note sets out measurements from patent US20200308591A1, “PROMOTER REGION ANALYSIS METHODS AND CELLS FOR PRACTICING SAME” (Eurofins DiscoverX Corporation, priority 2019, published 2020).

One experiment has as its system NF-κB signaling pathways. Briefly: U2OS NF-κB EFC reporter assay, TNFα stimulation of single-cell clones. Format: cell-based. As to conditions: 6h stimulation; range over the different clones; read-out: potency of TNFα. The procedure:
NF-kB EFC Reporter Plasmid includes a promoter that has 5 tandemly repeated NF-κB transcription factor binding response elements, where of 3 GGGAATTTCC (SEQ ID NO:6) sequences are interspersed by 2 alternating GGGGACTTTCC (SEQ ID NO:6) sequences.
FIG. 4. Response to cytokine TNFα of single-cell clones of U20S NF-κB EFC Reporter cells. 2500 cells/well from 5 individual single-cell clones of a U2OS cells stably expressing NF-κB EFC Reporter construct were plated in a 384 well plate. Cells were stimulated with the indicated concentrations of TNFα for 6h followed by detection by PathHunter® FLASH detection reagent (+5×EA) with cell lysis.
TNFα is known to stimulate the “NF-κB signaling pathways” and the NF-κB transcription factor. Stimulation of U2OS cells stably transfected with NF-κB EFC Reporter construct using different dilutions of TNFα for 6h reveal a dose dependent stimulation of the NF-κB EFC reporter as evidenced by EFC after addition of +EA (FIG. 4). […] Assays for inhibition could be developed by looking for decreases in RLUs with test compounds in the presence of stimulating doses of TNFα is or other activating ligands (see FIG. 5).
On the technique in general: Reporter assays use an easily measured gene product as a stand-in for the process of interest.

The subject of another experiment is TNF receptor. The experiment can be described thus: EFC-based versus Luciferase NFκB transcriptional reporter assay, TNFα. In kind it is cell-based. Particulars: 18h stimulation. The method, then:
FIG. 14. […] U2OS cells stably transfected with a plasmid encoding an NFκB transcriptional response element driving expression of either the EFC reporter (left panel) or (Firefly) Luciferase-PEST were stimulated with a range of concentrations of TNFα for 18h followed by cell lysis, addition of excess EA, incubation for 1h and determination of luminescence (RLU). The luminescence detected indicates the extent of induction of the respective carrier protein by TNFα.

As to “TNFα: cytokine known to stimulate the NF-κB signaling pathways; TNF receptor ligand”, the EC50 in the experiment on NF-κB signaling pathways fell in the range of 30 to 120 pM. Besides, in the experiment on TNF receptor, the “potency in the EFC assay relative to the Luciferase assays” value is 12-15.
